Among the data in ChEMBL document CHEMBL2216751, “PI3Kδ and PI3Kγ as targets for autoimmune and inflammatory diseases” (J Med Chem, 2012) are IC50 values, retold here.

Protein sequences, listed by entry. Tags and fused reporters are not part of them. Lines headed by an entry give the natural chain unless they say otherwise; changes in a name come on top.
UniProt P42338: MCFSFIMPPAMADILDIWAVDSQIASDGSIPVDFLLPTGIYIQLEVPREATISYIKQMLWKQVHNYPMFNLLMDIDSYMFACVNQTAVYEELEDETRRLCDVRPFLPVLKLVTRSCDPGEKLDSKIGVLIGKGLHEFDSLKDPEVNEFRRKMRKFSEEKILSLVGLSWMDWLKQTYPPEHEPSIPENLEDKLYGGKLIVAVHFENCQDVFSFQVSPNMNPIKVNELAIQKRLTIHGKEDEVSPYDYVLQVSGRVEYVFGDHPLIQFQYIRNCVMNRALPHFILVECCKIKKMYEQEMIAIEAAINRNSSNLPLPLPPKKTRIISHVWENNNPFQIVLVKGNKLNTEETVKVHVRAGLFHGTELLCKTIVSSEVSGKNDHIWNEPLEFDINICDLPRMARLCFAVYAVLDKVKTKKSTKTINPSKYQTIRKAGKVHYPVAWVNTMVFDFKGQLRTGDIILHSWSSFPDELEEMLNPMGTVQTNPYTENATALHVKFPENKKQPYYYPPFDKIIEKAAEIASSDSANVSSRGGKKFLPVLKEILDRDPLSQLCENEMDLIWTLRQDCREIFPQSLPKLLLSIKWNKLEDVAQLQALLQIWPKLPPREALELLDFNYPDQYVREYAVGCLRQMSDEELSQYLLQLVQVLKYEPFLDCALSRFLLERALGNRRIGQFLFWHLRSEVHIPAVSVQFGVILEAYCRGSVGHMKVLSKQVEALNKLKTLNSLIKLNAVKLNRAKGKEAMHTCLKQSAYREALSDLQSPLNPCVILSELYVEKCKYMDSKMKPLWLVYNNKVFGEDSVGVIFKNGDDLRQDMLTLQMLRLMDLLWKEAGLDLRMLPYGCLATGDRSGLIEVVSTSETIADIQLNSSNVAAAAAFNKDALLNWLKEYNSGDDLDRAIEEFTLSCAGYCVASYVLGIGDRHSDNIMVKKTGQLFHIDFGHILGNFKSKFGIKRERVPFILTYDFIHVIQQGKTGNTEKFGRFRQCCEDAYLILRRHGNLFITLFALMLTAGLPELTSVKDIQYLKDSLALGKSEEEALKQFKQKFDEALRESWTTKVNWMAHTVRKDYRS

The target in experiment [1] is Phosphatidylinositol 4,5-bisphosphate 3-kinase catalytic subunit beta isoform (Homo sapiens, UniProt P42338). In words: Inhibition of PI3Kbeta using phosphatidylinositol as substrate by gamma33P[ATP] incorporation assay.
Experiment [2] concerns the target T1, Phosphatidylinositol 4,5-bisphosphate 3-kinase catalytic subunit delta isoform (Homo sapiens, UniProt O00329).
T1 sequence (O00329 whole entry): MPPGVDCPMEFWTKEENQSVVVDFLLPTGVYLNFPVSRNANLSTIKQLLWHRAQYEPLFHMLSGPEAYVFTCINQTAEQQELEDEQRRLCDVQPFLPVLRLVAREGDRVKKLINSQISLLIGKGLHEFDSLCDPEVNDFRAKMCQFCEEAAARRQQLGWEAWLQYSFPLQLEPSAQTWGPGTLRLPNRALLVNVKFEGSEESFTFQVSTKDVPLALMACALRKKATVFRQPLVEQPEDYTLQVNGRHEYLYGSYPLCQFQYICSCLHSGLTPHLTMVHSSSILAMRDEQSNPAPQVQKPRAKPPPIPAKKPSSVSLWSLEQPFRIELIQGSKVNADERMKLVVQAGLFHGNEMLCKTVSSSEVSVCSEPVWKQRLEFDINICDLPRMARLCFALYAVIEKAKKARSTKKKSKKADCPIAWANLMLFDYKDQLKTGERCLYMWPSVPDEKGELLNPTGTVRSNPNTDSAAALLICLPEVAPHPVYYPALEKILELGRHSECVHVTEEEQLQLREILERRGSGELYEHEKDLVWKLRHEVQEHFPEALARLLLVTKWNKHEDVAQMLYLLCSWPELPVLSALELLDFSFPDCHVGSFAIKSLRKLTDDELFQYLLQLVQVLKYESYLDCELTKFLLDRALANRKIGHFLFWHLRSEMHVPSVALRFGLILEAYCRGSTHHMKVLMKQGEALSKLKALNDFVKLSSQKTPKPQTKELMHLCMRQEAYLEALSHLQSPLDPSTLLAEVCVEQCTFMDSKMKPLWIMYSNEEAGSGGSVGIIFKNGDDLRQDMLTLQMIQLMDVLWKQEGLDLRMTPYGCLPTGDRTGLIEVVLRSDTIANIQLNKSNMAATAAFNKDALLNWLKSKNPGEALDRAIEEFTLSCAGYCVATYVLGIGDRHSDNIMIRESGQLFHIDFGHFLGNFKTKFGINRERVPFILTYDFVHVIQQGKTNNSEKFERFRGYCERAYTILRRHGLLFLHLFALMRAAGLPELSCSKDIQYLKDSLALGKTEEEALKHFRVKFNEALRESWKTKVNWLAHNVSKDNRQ

Turning to `O=c1cc(N2CCOCC2)oc2c(-c3ccccc3)cccc12` [LY-294002], the half-inhibitory concentration (IC50) (usually the concentration at which inhibition is half-maximal) in experiment [1] was determined as 310 nM.
In turn, `Cc1ccccc1-n1c(Cn2nc(-c3cc(O)cc(F)c3)c3c(N)ncnc32)cc2cccc(C)c2c1=O` had a half-maximal inhibitory concentration (IC50) in experiment [2] of 0.3 nM.
`CC(=O)Nc1nc2ccc(-c3nn(Cc4cc5cccc(C)c5c(=O)n4-c4ccccc4C)c4ncnc(N)c34)cc2s1` came in with a half-maximal inhibitory concentration (IC50) in experiment [2] below 100 nM.
